## Antibody variant affinities, Ab-14 light chain, assay B

From the AlphaSeq antibody data of Li et al. 2023 (doi:10.1038/s41467-023-39022-2), copy in the FLAb collection.

All variants were tested on one target, the spike HR2 peptide PDVDLGDISGINAS (SARS-CoV-2).

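The variants were designed computationally from a first round of random CDR variants and then made and measured. Several design methods are mixed in this list. The scFvs were displayed on barcoded MATa yeast, the peptide on MATalpha yeast. After mating in shaken culture at 30 °C for 16 h, diploids were selected and their barcode pairs sequenced. Read counts were normalised to the haploid input and turned into Kd by a linear fit to BCL2-family pairs of known affinity, for each replicate. The assay was run in six technical replicates.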

The variants keep the heavy chain, the linker and the frameworks of Ab-14 (scFv order VH, a (GGGGS)3 linker, VL).
VH: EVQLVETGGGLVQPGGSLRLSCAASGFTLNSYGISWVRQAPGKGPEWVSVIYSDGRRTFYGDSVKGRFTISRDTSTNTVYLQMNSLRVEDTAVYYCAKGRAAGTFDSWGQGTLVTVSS
VL: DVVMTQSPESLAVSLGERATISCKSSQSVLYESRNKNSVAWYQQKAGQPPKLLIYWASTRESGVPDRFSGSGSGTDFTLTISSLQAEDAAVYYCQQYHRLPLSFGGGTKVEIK

Sequences are complete VL domains.
This list holds designs with more than six substitutions.
Affinities are written as log10 Kd with Kd in nM; a lower number is a better binder.
The mean shown is taken over the replicates in which the pair was detected.
"nd" means that the variant was in the library but no mating with the target was seen in that replicate; the authors take this as a sign of poor binding, and no number exists.
In the paper, a design with two or fewer of six values counts as a poor binder.

| VL | log10 Kd, replicates | log10 Kd (nM), mean |
|---|---|---|
| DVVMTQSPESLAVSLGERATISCKVSEFMKGLMSRQDSIAWYQQKAGQPPKLLIYDNNTRGEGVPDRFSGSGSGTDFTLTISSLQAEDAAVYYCQQYDRLPLSFGGGTKVEIK | 1.80 / 1.40 / 1.33 / 2.92 / 1.57 / 1.99 | 1.83 |
| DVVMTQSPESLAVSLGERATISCKISQMVRVGATHSNSIAWYQQKAGQPPKLLIYEEQTRAKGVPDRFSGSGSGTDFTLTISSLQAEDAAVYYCQQYHRLPLSFGGGTKVEIK | 0.81 / 0.94 / 0.35 / 0.64 / 0.55 / 1.03 | 0.72 |
| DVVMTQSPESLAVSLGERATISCIVSQLMIWGMKLKNSIAWYQQKAGQPPKLLIYEAETRLNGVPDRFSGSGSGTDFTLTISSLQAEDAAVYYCQQYDRLPLFFGGGTKVEIK | nd / nd / nd / nd / nd / nd | nd |
| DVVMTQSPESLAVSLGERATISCTIGVTLMQGIRNRSNVAWYQQKAGQPPKLLIYEVSERLNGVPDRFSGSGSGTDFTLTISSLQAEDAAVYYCQQYDRLPLLFGGGTKVEIK | 0.25 / 0.23 / -0.11 / -0.31 / -0.16 / -0.09 | -0.03 |
| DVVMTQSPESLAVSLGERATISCMLSQMWALGMKASNSVAWYQQKAGQPPKLLIYQASMRFNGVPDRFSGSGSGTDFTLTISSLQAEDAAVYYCQQYHRLPLIFGGGTKVEIK | nd / nd / nd / 2.04 / nd / 1.83 | 1.94 |
| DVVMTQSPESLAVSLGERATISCQFDLFMNYQGMQNAAIAWYQQKAGQPPKLLIYGATNRHTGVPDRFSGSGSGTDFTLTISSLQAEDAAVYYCQQYQKLPLSFGGGTKVEIK | 1.34 / 0.45 / 0.65 / 0.93 / 0.48 / 0.86 | 0.78 |
| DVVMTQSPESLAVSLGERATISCKLSGMMASSKFAKDNVAWYQQKAGQPPKLLIYENNTREYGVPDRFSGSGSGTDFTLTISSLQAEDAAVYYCQQYDRLPLSFGGGTKVEIK | nd / nd / nd / 2.48 / nd / nd | 2.48 |
| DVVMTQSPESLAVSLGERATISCMVNGIMDHLSKQVNNVAWYQQKAGQPPKLLIYEMTTREEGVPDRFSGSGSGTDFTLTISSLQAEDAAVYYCQQYERLPLSFGGGTKVEIK | nd / 2.12 / 0.73 / 0.98 / 1.40 / 0.66 | 1.18 |
| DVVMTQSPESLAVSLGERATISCSMRAVGCDMQRNHSNIAWYQQKAGQPPKLLIYDATQIEDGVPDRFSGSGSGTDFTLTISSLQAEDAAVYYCQQYVMLPLSFGGGTKVEIK | 0.48 / 1.08 / 0.38 / 0.60 / 1.37 / 1.25 | 0.86 |
| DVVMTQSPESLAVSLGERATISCYLSINEVSDSNNVSRVAWYQQKAGQPPKLLIYEAETSVAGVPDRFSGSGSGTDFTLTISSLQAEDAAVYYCQQYHHLPLIFGGGTKVEIK | nd / 1.32 / nd / nd / nd / 2.58 | 1.95 |
| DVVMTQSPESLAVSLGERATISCKLRWDDMPHEETRKNVAWYQQKAGQPPKLLIYDATMRVHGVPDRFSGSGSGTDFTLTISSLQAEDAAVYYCQQYNRLPLDFGGGTKVEIK | 0.96 / 0.98 / 0.62 / 0.30 / 0.68 / 0.61 | 0.69 |
| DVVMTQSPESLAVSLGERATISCKLDLYNGEMDKKGDNIAWYQQKAGQPPKLLIYEASTAGMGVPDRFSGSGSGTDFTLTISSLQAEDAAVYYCQHYWRLPLSFGGGTKVEIK | nd / 2.14 / 1.58 / 2.11 / 1.71 / 1.78 | 1.86 |
| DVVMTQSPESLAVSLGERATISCHISQSHGMTSRNKNSVAWYQQKAGQPPKLLIYENSTREDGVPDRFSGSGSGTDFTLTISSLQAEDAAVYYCQQYDRLPLSFGGGTKVEIK | 1.37 / 4.12 / 1.12 / 0.38 / 1.20 / 2.20 | 1.73 |
| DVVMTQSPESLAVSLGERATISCHLMPLNLHYTGTLNSVAWYQQKAGQPPKLLIYEAEERQEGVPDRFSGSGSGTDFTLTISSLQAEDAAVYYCQHYARLPLMFGGGTKVEIK | nd / nd / nd / 1.33 / nd / 2.58 | 1.95 |
| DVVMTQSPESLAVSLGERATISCAIVEDNAGDQKNSSNIAWYQQKAGQPPKLLIYSVDQREDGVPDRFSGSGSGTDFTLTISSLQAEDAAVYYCQQYQRLPLMFGGGTKVEIK | 0.95 / 1.00 / 0.84 / 0.86 / 0.55 / 1.06 | 0.88 |
| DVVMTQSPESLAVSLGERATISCKLMMFMQEIGCMKNNIAWYQQKAGQPPKLLIYNLKEGARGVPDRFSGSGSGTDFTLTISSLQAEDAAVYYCQQYAQLPLVFGGGTKVEIK | nd / nd / nd / nd / nd / nd | nd |
| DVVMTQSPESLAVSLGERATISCTISDLMGHISRIHNNVAWYQQKAGQPPKLLIYDQNTREDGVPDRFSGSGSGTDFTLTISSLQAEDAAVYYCQQYNRLPLSFGGGTKVEIK | 0.29 / 0.34 / 0.18 / 0.17 / 0.14 / 0.22 | 0.23 |

For reference, 3 entries of the list once more:

VL	log10 Kd, replicates	log10 Kd (nM), mean
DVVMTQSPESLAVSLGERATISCKLDLYNGEMDKKGDNIAWYQQKAGQPPKLLIYEASTAGMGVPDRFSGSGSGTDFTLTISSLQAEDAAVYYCQHYWRLPLSFGGGTKVEIK	nd / 2.14 / 1.58 / 2.11 / 1.71 / 1.78	1.86
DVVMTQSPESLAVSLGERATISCKISQMVRVGATHSNSIAWYQQKAGQPPKLLIYEEQTRAKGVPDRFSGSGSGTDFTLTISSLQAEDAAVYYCQQYHRLPLSFGGGTKVEIK	0.81 / 0.94 / 0.35 / 0.64 / 0.55 / 1.03	0.72
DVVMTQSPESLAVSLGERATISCTIGVTLMQGIRNRSNVAWYQQKAGQPPKLLIYEVSERLNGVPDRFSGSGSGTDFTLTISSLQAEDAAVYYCQQYDRLPLLFGGGTKVEIK	0.25 / 0.23 / -0.11 / -0.31 / -0.16 / -0.09	-0.03

As a blank, each scFv also met three strains without target: over all light chain designs, 4% of these pairings were detected, typically at 2.64 and seldom below 1.59.
A sequence measured in both rounds can read differently, since the two assays cover different ranges.